Results published in ChEMBL document CHEMBL1127591, “Novel prodrugs of alkylating agents derived from 2-fluoro- and 3-fluorobenzoic acids for antibody-directed enzyme prodrug therapy” (J Med Chem, 1994).

experiment: Chemical half-life in percholate at 37 degree was determined; format: ADME

Compound | T1/2
O=C(O)c1ccc(N(CCCl)CCCl)cc1 | 324 min
O=C(O)c1ccc(N(CCCl)CCCl)c(F)c1 | 72 min
O=C(O)c1ccc(N(CCCl)CCCl)cc1F | 1240 min
